Test results published in PMC10747034, “Medicines for Malaria Venture Pandemic Box In Vitro Screening Identifies Compounds Highly Active against the Tachyzoite Stage of Toxoplasma gondii” (Tropical Medicine and Infectious Disease, 2023).
Values joined by “and” are separate entries in the source; they are usually repeats but may differ in a detail not shown here. Identical values can stand only once. Like-named read-outs stand apart in the source and are kept apart here.

How the values were obtained:
[1] = tested on: Toxoplasma gondii tachyzoites of RH strain; assay: Plaque assay (7 days) in NHDF monolayers infected with T. gondii; assay type: cell-based
Procedure: After NHDF reached confluency, each well was replaced with fresh medium containing one compound at a concentration of 1 µM, and then infected with 1000 newly egressed tachyzoites from RH strain [29]. Screening at 1 μM is recommended by MMV. As a control, infected cells were incubated with complete medium and 0.01% DMSO [29]. The plates were then kept in an incubator at 37 °C in a humid atmosphere with 5% CO2 for seven days. After this time, cultures were fixed with 70% ethanol and stained with crystal violet to observe the plates.
For that, 12-well plates containing a monolayer of NHDF were infected with 600 tachyzoites of the RH strain of T. gondii and treated with different concentrations for seven days. IC50s of compounds were calculated using GraphPad Prism 8.0 software.
Data were analyzed using GraphPad Prim 8.0 software. IC50 and CC50 calculations were performed by fitting the values of proliferation/viability in percentage to a non-linear curve followed by dose–response inhibition analysis through log(inhibitor) vs. normalized response.

[2] = tested on: NHDF cells; assay: Cytotoxicity assay (MTS, 7 days); assay type: cell-based, Human
Procedure: For that, 96-well tissue plates containing NHDF cells were treated with different concentrations of compounds up to 10 µM for seven days. Control cells were incubated with 0.5% DMSO. At the end of the treatment, cell viability was then analyzed through the colorimetric method of MTS (Promega, Madison, WI, USA). […] Data were analyzed using GraphPad Prim 8.0 software. IC50 and CC50 calculations were performed by fitting the values of proliferation/viability in percentage to a non-linear curve followed by dose–response inhibition analysis through log(inhibitor) vs. normalized response.

`CCC[C@@H]1C[C@@H](C(=O)N[C@@H]([C@H]2O[C@H](SC)[C@H](O)[C@@H](O)[C@H]2O)[C@H](C)Cl)N(C)C1` [Clindamycin] was tested, and the IC50 ([1]; read-out: IC50 (nM) in Tachyzoites of RH Strain (7 Days), 7 days of treatment, two independent experiments) was < 5 nM and 3.3 nM, the IC50 ([1]; read-out: IC50 (nM) in Tachyzoites of RH Strain (7 Days), 7 days of treatment, two independent experiments, listed as clindamycin) was under 10 nM and the “SI (Selectivity Index, CC50 NHDF cells/IC50 T. gondii)” value [2] was 2679.
